Here are results for 3 molecules from patent US11737461B2, “Citrate perhydrates and uses thereof” (BIOREM ENGINEERING SA, priority 2018, dated 2023).

Experiment [1] has as its system Staphylococcus aureus MRSA. The experiment can be described thus: microbe, parasite or virus in culture.
Experiment [2] has as its system Staphylococcus aureus MRSA.

Read-outs that look alike come from different tables or passages of the source.

On to `CCO` [Ethanol], for which, in experiment [1] (read-out: MIC value), the MIC stood at 87.5 mg/mL. In experiment [2], this molecule registered an MIC % of 8.750%.
On to `OO` [Hydrogen peroxide], for which the results for the MIC in experiment [1] (read-out: MIC mM) and in experiment [1] (read-out: MIC value) were 27.6 mM and 0.94 mg/mL, respectively. The MIC % in experiment [2] stood at 0.094%.
In experiment [2], `O=C([O-])CC(O)(CC(=O)[O-])C(=O)[O-].[Na+].[Na+].[Na+]` [Sodium citrate] showed an MIC % of 0.320% and an MIC value of 3.20 mg/mL.
